We go through one substance from patent publication US9290617B2, “Method of biomolecule immobilization on polymers using click-type chemistry” (priority 2005, dated 2016).

Entries after “also recorded” stand apart in the source; their conditions may differ.

The experiment relates to HER2-overexpressing SKBR3 cancer cells. Put plainly: Flow cytometry binding of anti-HER2 immuno-nanoparticles to SKBR3 cells. It is filed as cell-based. The method, then:
3.0 mg/ml copolymer nanoparticle solution in distilled water was mixed with the same volume of 0.1 mg/ml Mal-Ab 4 solution in 50 mM MES buffer of pH 5.5. The reaction solution was incubated under mild shaking at 37° C. for various time periods. The immuno-nanoparticles were purified by passing over a Sephacryl S-300HR column in PBS buffer of pH 7.4. The bound antibody was quantified by enzyme-linked immunosorbent assay (ELISA). […] It is notable that a coupling efficiency of greater than 80% was achieved after 6 h of incubation, corresponding to 27.0 μg of antibody bound per mg of nanoparticle. […] Herceptin® antibodies specifically recognize and bind with the HER2 receptor, which is overexpressed on the surface of SKBR3 breast cancer cells.

Turning to “anti-HER2 immuno-nanoparticles: monoclonal antibody Herceptin coupled with the nanoparticles by the Diels-Alder procedure”, the “binding with SKBR3 breast cancer cells” value is on record as “successfully bound; also recorded: successful binding”.
